Biological target: Nociceptin receptor (Rattus norvegicus, UniProt P35370)

Chains of the proteins cited; added tags and fusions are not shown. Lines headed by an entry give the natural chain unless they say otherwise; changes in a name come on top.
UniProt P35370: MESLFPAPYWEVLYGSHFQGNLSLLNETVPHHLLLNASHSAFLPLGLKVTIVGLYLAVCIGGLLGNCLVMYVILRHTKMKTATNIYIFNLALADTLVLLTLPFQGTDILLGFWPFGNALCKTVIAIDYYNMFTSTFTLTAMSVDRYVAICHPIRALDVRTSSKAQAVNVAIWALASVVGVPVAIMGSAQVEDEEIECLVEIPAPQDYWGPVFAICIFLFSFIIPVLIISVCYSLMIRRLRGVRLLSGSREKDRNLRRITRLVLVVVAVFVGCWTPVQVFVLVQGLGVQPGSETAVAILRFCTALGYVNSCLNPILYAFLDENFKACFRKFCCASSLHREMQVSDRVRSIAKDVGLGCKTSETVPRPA

CC(C)C[C@H](NC(=O)[C@H](CCCCN)NC(=O)[C@H](CCCN=C(N)N)NC(=O)[C@H](C)NC(=O)[C@H](CO)NC(=O)[C@H](CCCCN)NC(=O)[C@H](CCCN=C(N)N)NC(=O)[C@H](C)NC(=O)CNC(=O)[C@@H](NC(=O)[C@H](Cc1ccccc1)NC(=O)CNC(=O)CNC(=O)[C@@H](N)Cc1ccccc1)[C@@H](C)O)C(=O)N[C@@H](C)C(=O)N[C@@H](CC(N)=O)C(=O)N[C@@H](CCC(N)=O)C(=O)O [OFQ 1-17]
Ki: 0.38 nM

Source: BindingDB's records for doi:10.1016/s0891-0618(03)00032-2 (University of Michigan, 2003)
